Test results published in PMC5646416 (Journal of clinical pharmacy and therapeutics, 2017).
Read-outs that look alike come from different tables or passages of the source.

Conditions: plasma, single oral 25 mg exemestane

17-hydroexemestane [17-HEXE]
AUC0–8 (OATP1B1 rs4149056T>C CC + CT group): 3.09 ng·h/mL
AUC0–8 (OATP1B1 rs4149056T>C TT group): 1.83 ng·h/mL
